{"source": "patent US11370781B2", "about": "“Combination therapy for treating cancer” (Epizyme, Inc., priority 2012, dated 2022)", "system": "WSU-DLCL2 human lymphoma cells", "assay": "Efficacy study in WSU-DLCL2 xenograft model", "assay_type": "in vivo", "settings": "Compound 44 single agent, 150 mg/kg TID and 225 mg/kg BID; p<0.05", "data": [{"smiles": "CCN(c1cc(-c2ccc(CN3CCOCC3)cc2)cc(C(=O)NCc2c(C)cc(C)[nH]c2=O)c1C)C1CCOCC1", "note": "[Compound 44, N-((4,6-dimethyl-2-oxo-1,2-dihydropyridin-3-yl)methyl)-5-(ethyl (tetrahydro-2H-pyran-4-yl)amino)-4-methyl-4′-(morpholinomethyl)-[1,1′-biphenyl]-3-carboxamide]", "values": [{"measurement": "tumor volume compared to vehicle treated mice", "value": "significantly smaller tumors by volume"}]}]}
